Tests used:
[1] = molecular target: T1, Leukotriene A-4 hydrolase (Homo sapiens, UniProt P09960); experiment: Inhibition of peptidase activity of human recombinant LTA4H expressed in Escherichia coli BL21-AI/pRARE
T1 sequence (P09960 whole entry): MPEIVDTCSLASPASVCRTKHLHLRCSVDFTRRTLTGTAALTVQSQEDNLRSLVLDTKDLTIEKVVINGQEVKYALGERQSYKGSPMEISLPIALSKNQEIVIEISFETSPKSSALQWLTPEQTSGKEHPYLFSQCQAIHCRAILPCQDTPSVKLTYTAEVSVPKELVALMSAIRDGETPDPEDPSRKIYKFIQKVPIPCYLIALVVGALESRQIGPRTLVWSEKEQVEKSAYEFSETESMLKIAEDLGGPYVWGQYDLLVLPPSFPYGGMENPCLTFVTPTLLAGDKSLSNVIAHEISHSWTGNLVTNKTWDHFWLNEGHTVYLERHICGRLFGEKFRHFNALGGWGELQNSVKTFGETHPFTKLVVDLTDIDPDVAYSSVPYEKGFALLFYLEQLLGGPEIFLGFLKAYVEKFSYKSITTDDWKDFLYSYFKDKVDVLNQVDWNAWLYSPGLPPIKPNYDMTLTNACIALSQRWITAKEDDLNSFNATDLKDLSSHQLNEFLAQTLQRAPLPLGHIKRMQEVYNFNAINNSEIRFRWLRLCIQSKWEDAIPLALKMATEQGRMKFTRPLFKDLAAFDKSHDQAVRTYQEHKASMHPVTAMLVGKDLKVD

[2] = molecular target: T1, Leukotriene A-4 hydrolase; experiment: Inhibition of hydrolase activity of human recombinant LTA4H expressed in Escherichia coli BL21-AI/pRARE assessed as LTB4 formation by tandem quadrupole mass spectrometry

IC50 [1] [µM]	IC50 [2] [µM]	SMILES
3670	–	O=C(c1ccncc1)c1ccc(F)cc1
–	0.0708	O=C(O)CCCN1CCC[C@@H]1COc1ccc(Oc2ccc(Cl)cc2)cc1

Source: ChEMBL document CHEMBL1158490, “Discovery of leukotriene A4 hydrolase inhibitors using metabolomics biased fragment crystallography” (J Med Chem, 2009)
